This passage reports Km and kcat/Km results from paper PMC8958541.

Common to all, as to assay: purified protein
What all share (conditions): 37.0 °C

Series [1] relates to CCCOC(=O)c1cc(O)c(O)c(O)c1.
Series [2] concerns O=C(O[C@@H]1O[C@H](CO)[C@@H](O)[C@H](O)[C@H]1O)c1cc(O)c(O)c(O)c1.
A further series concerns COC(=O)c1cc(O)c(O)c(O)c1.

Take CbTan2 (Clostridium butyricum): the figures for the Km (in series [1]; in series [2]; in the series on COC(=O)c1cc(O)c(O)c(O)c1) were 22.2 ± 2.26 mM, 23.0 ± 3.70 mM and 23.4 ± 2.68 mM, respectively. Also, the kcat/Km in series [1] turned out to be 6170 M⁻¹ s⁻¹; in series [2], 10200 M⁻¹ s⁻¹; with COC(=O)c1cc(O)c(O)c(O)c1, 7990 M⁻¹ s⁻¹.
